Experiments:
[1] = tested on: 293T cells
[2] = tested on: MDCK cells

Row | SMILES | CC50 [1] [µM] | CC50 [2] [µM]
1 | O=C1C(c2ccccc2)=C(O)c2cccc3c(=O)n(-c4ccccc4)c(O)c1c23 | 62.7 | 87
2 | Cn1c(=O)c(Cc2ccccc2)c(O)c2c(=O)n(-c3ccccc3)c(=O)n(-c3ccccc3)c21 | > 100 | > 100
3 | O=C1C2=C(CCC2)NC2C1C(=O)N(c1ccccc1)C(=O)N2c1ccccc1 (stereo not shown) | > 100 | > 100
4 | O=c1c(-c2ccccc2)c(O)c2c(n1-c1ccccc1)CCCC2 | > 100 | > 100
5 | CC1(C)CC(=O)c2c(O)c(-c3ccccc3)c(=O)n(-c3ccccc3)c2C1 | > 100 | > 100
